# Assay results from PubChem BioAssay AID2776 (Johns Hopkins Ion Channel Center, 2010).
# Protein sequences, listed by entry. Tags and fused reporters are not part of them. Lines headed by an entry give the natural chain unless they say otherwise; changes in a name come on top.
# UniProt Q9QUQ5: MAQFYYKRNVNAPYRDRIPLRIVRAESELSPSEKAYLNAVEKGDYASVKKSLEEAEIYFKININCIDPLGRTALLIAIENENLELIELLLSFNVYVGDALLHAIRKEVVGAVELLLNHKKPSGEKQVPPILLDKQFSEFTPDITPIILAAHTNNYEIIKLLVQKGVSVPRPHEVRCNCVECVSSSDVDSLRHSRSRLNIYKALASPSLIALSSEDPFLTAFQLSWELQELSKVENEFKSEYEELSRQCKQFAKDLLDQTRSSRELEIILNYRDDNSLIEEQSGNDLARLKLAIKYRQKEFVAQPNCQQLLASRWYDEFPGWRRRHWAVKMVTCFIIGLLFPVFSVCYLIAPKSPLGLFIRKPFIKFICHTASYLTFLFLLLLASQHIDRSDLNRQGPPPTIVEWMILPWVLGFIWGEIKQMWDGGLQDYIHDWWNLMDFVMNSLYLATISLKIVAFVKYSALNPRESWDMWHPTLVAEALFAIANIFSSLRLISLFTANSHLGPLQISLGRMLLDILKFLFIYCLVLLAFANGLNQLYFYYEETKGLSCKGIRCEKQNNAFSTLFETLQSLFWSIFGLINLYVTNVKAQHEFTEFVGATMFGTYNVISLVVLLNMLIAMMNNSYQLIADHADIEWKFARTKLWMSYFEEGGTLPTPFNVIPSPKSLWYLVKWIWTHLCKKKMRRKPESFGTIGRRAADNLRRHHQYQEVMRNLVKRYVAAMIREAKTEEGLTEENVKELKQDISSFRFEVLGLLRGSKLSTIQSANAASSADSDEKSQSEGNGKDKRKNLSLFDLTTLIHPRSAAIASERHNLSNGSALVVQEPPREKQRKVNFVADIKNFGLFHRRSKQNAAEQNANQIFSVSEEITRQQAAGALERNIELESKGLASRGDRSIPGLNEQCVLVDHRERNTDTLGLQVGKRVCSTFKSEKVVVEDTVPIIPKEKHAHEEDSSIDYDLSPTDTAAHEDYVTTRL
# The entries are a selection whose mix differs from that of the whole data set. Calls of active or inactive are those of the source.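 Rule for the calls: active = compounds whose fluorescence signal differed from control wells by over 3 SD, either direction, in both duplicate plates; inactive = the rest.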
# Target: Short transient receptor potential channel 4 (Mus musculus) (UniProt Q9QUQ5)
# Experiment: DAMGO-gated TRPC4 membrane potential modulation – cell-based, second specificity screen, HEK293 TRPC4/mu-opioid, selectivity assay for TRPC6 inhibitor project, confirmation (AID 2776)
# Settings: HEK293 TRPC4/MOR, membrane potential dye fluorescence, at 10 µM, channel activated by saturating DAMGO dose; hits give high values
Structure (SMILES),inhibition,outcome
CCC1=CC2Cc3nc4ccc(Cl)cc4c(N)c3C(C1)C2 (stereo not drawn),active: 22.5%,
CN1CCCC(OC(=O)C(c2ccccc2)c2ccccc2)C1 (stereo not drawn),,inactive
O=[N+]([O-])c1ccc(O)c(/C=N/Nc2ccc([N+](=O)[O-])cc2[N+](=O)[O-])c1,active: 66%,
